Reference: patent US20100298280A1, “Compounds for the Modulation of Huntingtin Aggregation, Methods and Means for Identifying Such Compounds” (priority 2007, published 2010)

Molecular target: mutant huntingtin aggregates (HDex1Q68 fused to ECFP/EYFP) (Homo sapiens, UniProt P42858, INS38QQQQQQQQQQQQQQQQQQQQQQQQQQQQQQQQQQQQQQQQQQQQQQQ)
Experiment: Cellular FRET aggregation assay in stable Tet-off CHO-AA8/Q68-Q68 cells
Format: cell-based
Settings: 48 h, 2% DMSO
Protocol: To determine the potential of possibly inhibiting substances the inventors performed dose response assays at concentrations ranging from 1, to 100 μM.
Screening was performed in 96-well plates (greiner bio-one) containing 1×10^4 cells/well of the stably inducible tet off cell lines htt-mut (six-fold) and CHO-AA8 line (three fold) for background control. Simultaneously, each compound was checked for its potential autofluorescence.
Two stable inducible CHO Tet off cell lines were constructed expressing simultaneously wildtype (CHO-AA8/Q17-Q17) or mutant (CHO-AA8/Q68-Q68) huntingtin fragments fused to ECFP or EYFP (FIG. 1B) after withdrawal of doxicycline (dox). Basal and induced expression levels of huntingtin fusion proteins were examined by Western blot analysis at different time intervals (4, 24, 48, and 72 hours). […] For the screening approach stable inducible huntingtin expressing cell lines were seeded in 96-well plates and the fluorescence intensities were measured with a fluorescence plate reader.
The test compounds were mixed in a fresh doxicycline-free medium with 2% DMSO and added to the Tet off cell lines two to three hours after seeding and attachment of the cells.
The FRET-measurement was performed 48 h later.
Subsequently, a second screening round was performed at concentration range 1, 3, and 10 μM, respectively.

Nc1nc2ccc(OC(F)(F)F)cc2s1 [Riluzole]
FRET-signal (effect in words): no effect
